# Assay results as given in US6472373B1, “Combination therapy for eradicating detectable HCV-RNA in antiviral treatment naive patients having chronic hepatitis C infection” (priority 1997, dated 2002).
# Assays:
# serum HCV-RNA [1] = assay: Study 2: virologic response by serum HCV-RNA/qPCR; format: in vivo, patients; details: for Sustained Virologic Response: 48 weeks treatment
# serum HCV-RNA [2] = assay: Studies 1 and 2 combined: virologic response by serum HCV-RNA/qPCR; format: in vivo, patients; details: for Sustained Virologic Response / Sustained Virologic Response by Baseline HCV-RNA Levels / Percent of Sustained Virologic Responders by Time to First No Detectable HCV-RNA Levels: Studies 1 & 2; for Sustained Virologic Response: HCV Genotype 1 and Baseline HCV-RNA ≦ 2 million copies/mL; for Loss of Detectable HCV-RNA at End of Treatment (EOT), percent patients responding / Sustained Virologic Response at EOFU / Sustained Virologic Response at End of Follow Up (EOFU): Studies 1 and 2 combined; for Sustained Virologic Response at End of Follow Up (EOFU): all patients
# [3] = system: chronic hepatitis C (serum ALT); assay: ALT response: normalization of serum ALT, Studies 1 & 2; format: in vivo, patients
# Description: […] proportion of patients with normalization of ALT at Endpoint of treatment.
# [4] = system: chronic hepatitis C (hepatic inflammation); assay: Study 2: liver histology, Knodell HAI (I+II+III) score; format: in vivo; details: patients with paired biopsies, 48 weeks treatment
# [5] = first no-detectable HCV-RNA at Week 4, 48 weeks treatment
# [6] = first no-detectable HCV-RNA at Week 12, 48 weeks treatment
# [7] = first no-detectable HCV-RNA at Week 24, 48 weeks treatment
substance,measurement,setting,value
"INTRON A + Placebo: INTRON A (interferon alpha-2b, recombinant) 3 million IU SC TIW plus placebo matching ribavirin; interferon monotherapy comparator",Sustained Virologic Response,serum HCV-RNA [1]; Genotype 1 & >2 million copies/mL,4% (5/122)
same,Sustained Virologic Response,serum HCV-RNA [1]; Genotype 1 & ≦2 million copies/mL,30% (14/46)
same,Sustained Virologic Response Rates by HCV Genotype,"serum HCV-RNA [1]; Genotype 1, 48 weeks treatment",11% (19/168)
same,Sustained Virologic Response Rates by HCV Genotype,"serum HCV-RNA [1]; Genotype 2, 48 weeks treatment",35% (8/23)
same,Sustained Virologic Response Rates by HCV Genotype,"serum HCV-RNA [1]; Genotype 3, 48 weeks treatment",32% (25/79)
same,Sustained Virologic Response Rates by HCV Genotype,"serum HCV-RNA [1]; Genotype 4-6, 48 weeks treatment",12% (1/8)
same,Sustained Virologic Response,serum HCV-RNA [1]; HCV-RNA/qPCR >2 million copies/mL,13% (24/183)
same,Sustained Virologic Response,serum HCV-RNA [1]; Other Genotype,31% (34/110)
same,Sustained Virologic Response,serum HCV-RNA [1]; Other genotype/>2 million copies/mL,31 % (19/61)
same,Sustained Virologic Response,serum HCV-RNA [1]; Other genotype/≦2 million copies/mL,31% (15/49)
same,Percent of Sustained Virologic Responders by Time to First No Detectable HCV-RNA Levels,serum HCV-RNA [1]; [5],72% (33/46)
same,Percent of Sustained Virologic Responders by Time to First No Detectable HCV-RNA Levels,serum HCV-RNA [1]; [6],34% (18/53)
same,Percent of Sustained Virologic Responders by Time to First No Detectable HCV-RNA Levels,serum HCV-RNA [1]; [7],10% (2/21)
same,Sustained Virologic Response,serum HCV-RNA [2]; 24 weeks treatment,4%
same,Sustained Virologic Response,serum HCV-RNA [2]; 48 weeks treatment,25%
same,Sustained Virologic Response by Baseline HCV-RNA Levels,"serum HCV-RNA [2]; all patients with Baseline HCV-RNA > 2 million copies/mL, 24 weeks treatment",4%
same,Sustained Virologic Response by Baseline HCV-RNA Levels,"serum HCV-RNA [2]; all patients with Baseline HCV-RNA > 2 million copies/mL, 48 weeks treatment",10%
same,Sustained Virologic Response by Baseline HCV-RNA Levels,"serum HCV-RNA [2]; all patients with Baseline HCV-RNA ≦ 2 million copies/mL, 24 weeks treatment",9%
same,Sustained Virologic Response by Baseline HCV-RNA Levels,"serum HCV-RNA [2]; all patients with Baseline HCV-RNA ≦ 2 million copies/mL, 48 weeks treatment",36%
same,Percent of Sustained Virologic Responders by Time to First No Detectable HCV-RNA Levels,"serum HCV-RNA [2]; first no-detectable HCV-RNA at Week 4, 24 weeks treatment",48% (10/21)
same,Percent of Sustained Virologic Responders by Time to First No Detectable HCV-RNA Levels,serum HCV-RNA [2]; [5],71% (47/66)
same,Percent of Sustained Virologic Responders by Time to First No Detectable HCV-RNA Levels,"serum HCV-RNA [2]; first no-detectable HCV-RNA at Week 12, 24 weeks treatment",9% (3/32)
same,Percent of Sustained Virologic Responders by Time to First No Detectable HCV-RNA Levels,serum HCV-RNA [2]; [6],35% (29/84)
same,Percent of Sustained Virologic Responders by Time to First No Detectable HCV-RNA Levels,"serum HCV-RNA [2]; first no-detectable HCV-RNA at Week 24, 24 weeks treatment",0% (0/22)
same,Percent of Sustained Virologic Responders by Time to First No Detectable HCV-RNA Levels,serum HCV-RNA [2]; [7],15% (6/39)
same,"Sustained response rates in patients older than 55 years, >75 kg or infected through transfusion","serum HCV-RNA [2]; Studies 1+2, 48 weeks treatment",10-12%
same,"Loss of Detectable HCV-RNA at End of Treatment (EOT), percent patients responding",serum HCV-RNA [2]; 24 weeks treatment,29%
same,"Loss of Detectable HCV-RNA at End of Treatment (EOT), percent patients responding",serum HCV-RNA [2]; 48 weeks treatment,24%
same,Sustained Virologic Response at EOFU,"serum HCV-RNA [2]; HCV Genotype 2, 24 weeks treatment",18%
same,Sustained Virologic Response at EOFU,"serum HCV-RNA [2]; HCV Genotype 2, 48 weeks treatment",35%
same,Sustained Virologic Response at EOFU,"serum HCV-RNA [2]; HCV Genotype 3, 24 weeks treatment",8%
same,Sustained Virologic Response at EOFU,"serum HCV-RNA [2]; HCV Genotype 3, 48 weeks treatment",29%
same,Sustained Virologic Response at EOFU,"serum HCV-RNA [2]; HCV Genotypes 4/5/6, 24 weeks treatment",0%
same,Sustained Virologic Response at EOFU,"serum HCV-RNA [2]; HCV Genotypes 4/5/6, 48 weeks treatment",11%
same,Sustained Virologic Response at EOFU,"serum HCV-RNA [2]; all HCV Genotype 1, 24 weeks treatment",2%
same,Sustained Virologic Response at EOFU,"serum HCV-RNA [2]; all HCV Genotype 1, 48 weeks treatment",9%
same,Sustained Virologic Response at End of Follow Up (EOFU),serum HCV-RNA [2]; 24 weeks treatment,6%
same,Sustained Virologic Response at End of Follow Up (EOFU),serum HCV-RNA [2]; 48 weeks treatment,16%
same,Normalization of Serum ALT At End of Treatment,"[3]; Studies 1 & 2 combined, 24 weeks treatment",24% (56)
same,Normalization of Serum ALT at End of Follow-Up,"[3]; Studies 1 + 2 combined, 24 weeks treatment",11% (25)
same,Normalization of Serum ALT at End of Follow-Up,"[3]; Studies 1 + 2 combined, 48 weeks treatment",24% (102)
same,Normalization of Serum ALT At End of Treatment,"[3]; Study 1, 24 weeks treatment",24% (56)
same,Normalization of Serum ALT at End of Follow-Up,"[3]; Study 1, 24 weeks treatment",11% (25)
same,Normalization of Serum ALT At End of Treatment,"[3]; Study 1, 48 weeks treatment",28% (82)
same,Normalization of Serum ALT at End of Follow-Up,"[3]; Study 1, 48 weeks treatment",16% (35)
same,Normalization of Serum ALT At End of Treatment,"[3]; Study 2, 48 weeks treatment",44% (123)
same,Normalization of Serum ALT at End of Follow-Up,"[3]; Study 2, 48 weeks treatment",24% (67)
same,"Improved Biopsy: Knodell HAI (I+II+III) decrease of 2 or more, 24 weeks following EOT",[4],39% (74)
